These results are taken from patent US20260217660A1, “INHIBITORS OF ACTIVIN RECEPTOR TYPE I (ACVRI) AND ACTIVIN RECEPTOR LIKE TYPE I (ACVRLI), AND METHODS USING SAME” (Baylor College of Medicine, priority 2023, published 2026).

By UniProt entry, the sequences of proteins in these tests, tags left out. Residues count along the entry.
UniProt P37023, 22-503: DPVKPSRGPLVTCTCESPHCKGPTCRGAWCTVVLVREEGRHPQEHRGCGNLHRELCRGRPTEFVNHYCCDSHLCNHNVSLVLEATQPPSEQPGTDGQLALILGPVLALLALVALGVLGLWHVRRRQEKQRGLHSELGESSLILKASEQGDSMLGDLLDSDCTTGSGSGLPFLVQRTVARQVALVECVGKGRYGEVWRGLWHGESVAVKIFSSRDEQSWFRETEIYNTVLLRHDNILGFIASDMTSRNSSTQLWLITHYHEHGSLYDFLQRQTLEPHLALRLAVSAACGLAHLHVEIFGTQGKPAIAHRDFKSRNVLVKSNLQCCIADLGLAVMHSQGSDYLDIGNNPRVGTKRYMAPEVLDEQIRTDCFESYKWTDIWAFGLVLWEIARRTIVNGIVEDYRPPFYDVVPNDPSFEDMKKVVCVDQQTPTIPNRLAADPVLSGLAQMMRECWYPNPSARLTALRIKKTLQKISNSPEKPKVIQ

A value given as a limit tells only on which side of the number the result lay.

A word on the IC50: it is the concentration needed to halve the response being measured. Higher therefore signals lower potency.

In assay [1] the target is T1, ACVRL1 (Homo sapiens, UniProt P37023). In words: Promega NanoBRET live-cell target engagement, ACVRL1. To be noted: NanoBRET ACVRL1 IC50 (μM), in cellulo; NI = No inhibition at 40 μM. Background: In BRET a luciferase serves as donor, and the signal depends on an acceptor being close.
The target of assay [2] is T2, ACVR1 (Homo sapiens, UniProt Q04771).
T2 construct: purchased ThermoFisher
T2 sequence (Q04771 21-509): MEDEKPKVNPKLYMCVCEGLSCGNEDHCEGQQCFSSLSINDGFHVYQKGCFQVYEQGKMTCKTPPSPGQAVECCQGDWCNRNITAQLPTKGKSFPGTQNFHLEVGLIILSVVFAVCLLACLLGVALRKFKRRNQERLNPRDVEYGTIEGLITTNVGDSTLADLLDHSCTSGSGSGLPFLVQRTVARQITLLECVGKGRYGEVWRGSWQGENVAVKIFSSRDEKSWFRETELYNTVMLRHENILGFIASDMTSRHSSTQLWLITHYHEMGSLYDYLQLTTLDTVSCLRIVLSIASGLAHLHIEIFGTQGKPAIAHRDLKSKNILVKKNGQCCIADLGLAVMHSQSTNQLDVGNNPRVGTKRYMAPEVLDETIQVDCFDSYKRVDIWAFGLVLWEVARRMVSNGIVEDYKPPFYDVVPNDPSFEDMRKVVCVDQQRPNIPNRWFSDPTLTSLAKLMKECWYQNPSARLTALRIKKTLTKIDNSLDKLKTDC
Nature of the assay: ThermoFisher (Lantha) kinase assay, inhibition of ACVR1. It is filed as biochemical. As to conditions: in vitro.

Assay [3] deals with T1, ACVRL1. In words: ThermoFisher (Lantha) kinase assay, inhibition of ACVRL1. It is filed as biochemical. More on the design: purchased ThermoFisher. As to conditions: in vitro, NA = not active at 1 μM.

With `COc1cc(-c2nc3ccc(C(=O)NCCCN4CCN(c5ccccc5)CC4)cc3n2C2CCC2)cc(OC)c1OC` [CDD-2315, 1-cyclobutyl-N-(3-(4-phenylpiperazin-1-yl)propyl)-2-(3,4,5-trimethoxyphenyl)-1H-benzo[d]imidazole-6-carboxamide], the values for the concentration for half-maximal inhibition (IC50) in assay [1], in assay [2] and in assay [3] were above 40 µM, 0.0042 µM and 0.0109 µM, respectively.
Turning to `COc1cc(-c2nc3ccc(C(=O)NCCCN4CCN(c5ccccc5)C(=O)C4)cc3n2C2CCC2)cc(OC)c1OC` [CDD-2790, 1-cyclobutyl-N-(3-(3-oxo-4-phenylpiperazin-1-yl)propyl)-2-(3,4,5-trimethoxyphenyl)-1H-benzo[d]imidazole-6-carboxamide], the IC50 in assay [1] was above 40 µM; in assay [2], 0.0085 µM; in assay [3], 0.0408 µM.
Taken in the same sequence, the figures for `COc1cc(-c2nc3ccc(C(=O)NCCN4CCN(C5CCCCC5)CC4)cc3n2C2CCC2)cc(OC)c1OC` [CDD-2794, 1-cyclobutyl-N-(2-(4-cyclohexylpiperazin-1-yl)ethyl)-2-(3,4,5-trimethoxyphenyl)-1H-benzo[d]imidazole-6-carboxamide] were above 40 µM, 0.0102 µM and 0.0112 µM.
The corresponding values for `CNC(=O)[C@H]1C[C@H](n2c(-c3cc(F)cc(OC)c3)nc3ccc(C(=O)NCCCN4CCN(c5ccccc5)CC4)cc32)C1` [CDD-2340, 2-(3-fluoro-5-methoxyphenyl)-1-((1r,3r)-3-(methylcarbamoyl)cyclobutyl)-N-(3-(4-phenylpiperazin-1-yl)propyl)-1H-benzo[d]imidazole-6-carboxamide] are above 40 µM, 0.0205 µM and 0.39 µM.
Taken in the same sequence, the figures for `CNC(=O)[C@H]1C[C@H](n2c(-c3cccc(OC)c3)nc3ccc(C(=O)NCCCN4CCN(c5ccccc5)CC4)cc32)C1` [CDD-2313, 2-(3-methoxyphenyl)-1-((1r,3r)-3-(methylcarbamoyl)cyclobutyl)-N-(3-(4-phenylpiperazin-1-yl)propyl)-1H-benzo[d]imidazole-6-carboxamide] were above 40 µM, 0.016 µM and 0.198 µM.
With `COc1cc(OC)cc(-c2nc3ccc(C(=O)NCCCN4CCN(c5cccc(C)c5C)CC4)cc3n2C2CCC2)c1` [CDD-2469, 1-cyclobutyl-2-(3,5-dimethoxyphenyl)-N-(3-(4-(2,3-dimethylphenyl)piperazin-1-yl)propyl)-1H-benzo[d]imidazole-6-carboxamide], the half-maximal inhibitory concentration (IC50) is 34 µM in assay [1], 0.0174 µM in assay [2] and 0.124 µM in assay [3].
Taken in the same sequence, the figures for `CNC(=O)[C@H]1C[C@H](n2c(-c3cc(OC)c(OC)c(OC)c3)nc3ccc(C(=O)NCC4CCN(C)CC4)cc32)C1` [CDD-2282, 1-((1r,3r)-3-(methylcarbamoyl)cyclobutyl)-N-((1-methylpiperidin-4-yl)methyl)-2-(3,4,5-trimethoxyphenyl)-1H-benzo[d]imidazole-6-carboxamide] were above 40 µM, 0.0164 µM and 0.0165 µM.
The corresponding values for `COc1cc(-c2nc3ccc(C(=O)NCCCN4CCN(C)C(c5ccccc5)C4)cc3n2C2CCC2)cc(OC)c1OC` (stereo not drawn) [CDD-2793, 1-cyclobutyl-N-(3-(4-methyl-3-phenylpiperazin-1-yl)propyl)-2-(3,4,5-trimethoxyphenyl)-1H-benzo[d]imidazole-6-carboxamide] are 32.6 µM, 0.009 µM and 0.0092 µM.
Taken in the same sequence, the figures for `CNC(=O)[C@H]1C[C@H](n2c(-c3cc(OC)c(OC)c(OC)c3)nc3ccc(C(=O)NCCCN(C)C)cc32)C1` [CDD-2281, N-(3-(dimethylamino)propyl)-1-((1r,3r)-3-(methylcarbamoyl)cyclobutyl)-2-(3,4,5-trimethoxyphenyl)-1H-benzo[d]imidazole-6-carboxamide] were above 40 µM, 0.0146 µM and 0.0156 µM.
With `COc1cc(F)cc(-c2nc3ccc(C(=O)NCCCN(C)C)cc3n2C2CCC2)c1` [CDD-2617, 1-cyclobutyl-N-(3-(dimethylamino)propyl)-2-(3-fluoro-5-methoxyphenyl)-1H-benzo[d]imidazole-6-carboxamide], the IC50 in assay [1] was above 40 µM; in assay [2], 0.049 µM; in assay [3] it was 0.17 µM.
Taken in the same sequence, the figures for `COc1cc(-c2nc3ccc(C(=O)NCCCN4CCN(C5CCCCC5)CC4)cc3n2C2CCC2)cc(OC)c1OC` [CDD-2792, 1-cyclobutyl-N-(3-(4-cyclohexylpiperazin-1-yl)propyl)-2-(3,4,5-trimethoxyphenyl)-1H-benzo[d]imidazole-6-carboxamide] were 29 µM, 0.0041 µM and 0.0167 µM.
On to `CNC(=O)[C@H]1C[C@H](n2c(-c3cc(OC)c(OC)c(OC)c3)nc3ccc(C(=O)NCCCN4CCN(C)CC4)cc32)C1` [CDD-2280, 1-((1r,3r)-3-(methylcarbamoyl)cyclobutyl)-N-(3-(4-methylpiperazin-1-yl)propyl)-2-(3,4,5-trimethoxyphenyl)-1H-benzo[d]imidazole-6-carboxamide], for which the IC50 in assay [1] was above 40 µM; in assay [2] it was 0.0231 µM; in assay [3] it was 0.0307 µM.
